{"source": "patent US20170315126A1", "about": "“METHOD FOR SCREENING COMPOUND SPECIFICALLY SUPPRESSING FORMATION OF CAVEOLAE OF CANCER CELLS, SCREENING KIT, VECTOR AND TRANSFORMANT TO BE USED IN KIT, AND METHOD FOR SELECTING PATIENT FOR WHOM MOLECULARLY TARGETED DRUG IS INDICATED” (NATIONAL UNIVERSITY CORPORATION NAGOYA INSTITUTE OF …, priority 2014, published 2017)", "origin": "cited, not measured here", "test_system": "A431 cells", "settings": "cited from earlier work", "note": "Read-outs that look alike come from different tables or passages of the source."}
{"molecule": "COc1cc2ncnc(Nc3ccc(F)c(Cl)c3)c2cc1OCCCN1CCOCC1", "note": "[gefitinib, Gefitinib]", "values": [{"measurement": "sensitivity of cells to EGFR-TKI", "setting": "A431, no ligand", "result": "sensitive"}, {"measurement": "sensitivity of cells to EGFR-TKI", "setting": "A431 in the presence of IGF-I", "result": "resistance"}]}
